Reference: ChEMBL document CHEMBL6153089, “Design, Synthesis, and Biological Evaluation of Thieno[3,2-d]pyrimidine Derivatives as the First Bifunctional PI3Kδ Isoform Selective/Bromodomain and Extra-Terminal Inhibitors” (J Med Chem, 2025)

Assays:
[1] = Selectivity ratio of IC50 for inhibition of p110alpha/p85alpha (unknown origin) to IC50 for inhibition of p110delta/p85alpha (unknown origin)
[2] = Selectivity ratio of IC50 for inhibition of PI3Kbeta (unknown origin) to IC50 for inhibition of p110delta/p85alpha (unknown origin)
[3] = Selectivity ratio of IC50 for inhibition of PI3Kgamma (unknown origin) to IC50 for inhibition of p110delta/p85alpha (unknown origin)

- Ratio IC50 [1]: 65
- Ratio IC50 [2]: 42
- Ratio IC50 [3]: 8.2
SMILES: Cn1cc(-c2nc(N3CCOCC3)c3sc(CN4CCC(C(C)(C)O)CC4)cc3n2)c2cc[nH]c2c1=O
